Data on 6 compounds can be found in PubChem BioAssay (EPA / NIEHS).

Sequences of proteins named here, by UniProt entry; tags and fusion partners are left off.
UniProt P01375, whole entry, looked up: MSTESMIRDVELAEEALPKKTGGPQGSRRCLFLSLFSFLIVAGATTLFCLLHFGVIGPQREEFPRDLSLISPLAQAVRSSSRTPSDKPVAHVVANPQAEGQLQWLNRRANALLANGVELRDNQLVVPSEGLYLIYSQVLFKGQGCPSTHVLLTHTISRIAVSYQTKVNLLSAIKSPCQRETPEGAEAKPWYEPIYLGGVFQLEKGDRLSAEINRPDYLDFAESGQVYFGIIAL

Where “and” joins values, the source holds several entries; their conditions need not be identical. Equal values may be shown once. Only a part is listed here, and it is no random draw. More than one record can exist for a structure, and the calls need not agree. Calls of active or inactive are those of the source. Rule for the calls: active = hit-call score of the fitted dose curve at least 0.9, where 1 is the maximum; inactive = score below 0.9.

Holding throughout (conditions): actives raise or lower the signal; primary human HUVEC with PBMC
Read-out in experiment [1]: Interleukin-1 alpha (IL1a), IL1A (gene 3552)
Description: BSK_LPS_IL1a: BioMAP Diversity Plus: LPS Assay for Interleukin-1 alpha (IL1a) Biomarker Activity (AID 2283080). The procedure, abridged:
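Human umbilical vein endothelial cells co-cultured with peripheral blood mononuclear cells were LPS-stimulated and exposed to test chemicals for 24 h. IL-1 alpha was quantified by ELISA, with bidirectional curve fitting against DMSO as the negative control and baseline.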

Read-out in experiment [2]: Monocyte Chemoattractant Protein-1 (MCP1), CCL2 (gene 6347)
Description: BSK_LPS_MCP1: BioMAP Diversity Plus: LPS Assay for Monocyte Chemoattractant Protein-1 (MCP1) Biomarker Activity (AID 2283081).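 For AC50: secreted MCP-1 protein quantified by ELISA in culture supernatant.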 The procedure, abridged: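 HUVEC plus PBMC co-culture (human primary cells, LPS system) exposed to test chemical for 24 h; MCP-1 measured by ELISA. Bidirectional curve fitting against DMSO baseline; parallel SRB total-protein staining flags overt cytotoxicity.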

Experiment [3] in a line: BSK_LPS_PGE2: BioMAP Diversity Plus: LPS Assay for Prostaglandin E2 (PGE2) Biomarker Activity (AID 2283082).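 For AC50: secreted prostaglandin E2 measured by ELISA in LPS-stimulated co-culture.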 The procedure, abridged:
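Endpoint derived from bidirectional curve fitting versus DMSO of ELISA-measured PGE2 in LPS-stimulated human primary vascular co-culture (HUVEC with PBMC) harvested at 24 h.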

Read-out in experiment [4]: Macrophage colony-stimulating factor (MCSF), CSF1 (gene 1435)
Description: BSK_LPS_MCSF: BioMAP Diversity Plus: LPS Assay for Macrophage colony-stimulating factor (MCSF) Biomarker Activity (AID 2283083). The procedure, abridged:
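Human umbilical vein endothelial cells co-cultured with peripheral blood mononuclear cells were exposed to compound for 24 h. M-CSF levels were measured by ELISA, and bidirectional curve fitting used DMSO as the negative control and baseline.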

Read-out in experiment [5]: Tissue Factor, F3 (gene 2152)
Description: BSK_LPS_TissueFactor: BioMAP Diversity Plus: LPS Assay for Tissue Factor Biomarker Activity (AID 2283084). The method in brief:
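Human umbilical vein endothelial cells co-cultured with peripheral blood mononuclear cells were dosed and stimulated with LPS. Cell-surface CD142 was quantified by ELISA at 24 h. Activity was fitted bidirectionally against DMSO baseline.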

Read-out in experiment [6]: Tumor necrosis factor (Homo sapiens) (UniProt P01375)
Kind of experiment: BSK_LPS_TNFa: BioMAP Diversity Plus: LPS Assay for Tumour Necrosis Factor alpha (TNFa) Biomarker Activity (AID 2283085).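 For AC50: TNFa protein level quantified by ELISA in the co-culture.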 The method in brief: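 Primary human vascular co-culture of HUVEC and PBMC; TNFa ELISA 24 h after treatment, analysed as increase or decrease relative to DMSO control.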

Read-out in experiment [7]: Vascular cell adhesion molecule 1 (VCAM1), VCAM1 (gene 7412)
Kind of experiment: BSK_LPS_VCAM1: BioMAP Diversity Plus: LPS Assay for Vascular cell adhesion molecule 1 (VCAM1) Biomarker Activity (AID 2283086). The procedure, abridged:
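Primary human vascular co-culture (umbilical vein endothelium plus PBMC) stimulated with LPS received chemical; 24 h later VCAM-1 was read by ELISA. Overt cytotoxicity was assessed by sulforhodamine B staining of parallel cultures at the same time point.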

Read-out in experiment [8]: CD38, CD38 (gene 952)
Kind of experiment: BSK_SAg_CD38: BioMAP Diversity Plus: SAg Assay for CD38 Biomarker Activity (AID 2283087). The procedure, abridged: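 Fluorescence ELISA of cell-surface CD38 served as the read-out, with either increase or decrease fitted against DMSO controls. Cells were a human umbilical vein endothelium plus PBMC co-culture under SEB/TSST-1 stimulation, measured 24 h after dosing.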

Read-out in experiment [9]: CD40, CD40 (gene 958)
Kind of experiment: BSK_SAg_CD40: BioMAP Diversity Plus: SAg Assay for CD40 Biomarker Activity (AID 2283088). The procedure: BSK_SAg is a cell-based, multiplexed-readout assay that uses umbilical vein endothelium and peripheral blood mononuclear cells, a human vascular primary cell co-culture, with measurements taken at 24 hours after chemical dosing in a 96-well plate.BSK_SAg_CD40 is one of 10 assay component(s) measured or calculated from the BSK_SAg assay. It is designed to make measurements of enzyme-linked immunosorbent assay, a form of binding reporter, as detected with fluorescence intensity signals by Enzyme-linked immunosorbent assay technology.Data from the assay component BSK_SAg_CD40 was analyzed into 1 assay endpoint. This assay endpoint, BSK_SAg_CD40, was analyzed with bidirectional fitting relative to DMSO as the negative control and baseline of activity. Using a type of binding reporter, gain or loss-of-signal activity can be used to understand changes in the signaling as they relate to the gene CD40. Furthermore, this assay endpoint can be referred to as a primary readout, because this assay has produced multiple assay endpoints where this one serves a signaling function. To generalize the intended target to other relatable targets, this assay endpoint is annotated to the cytokine intended target family, where the subfamily is inflammatory factor.
The levels of cell surface (or secreted, indicated by the prefix "s") biomarker endpoints were measured by ELISA. Overt cytotoxicity to cells in confluent adherent cultures (all systems other than the BT system) was assessed by measuring total protein levels using sulforhodamine B (SRB) staining in parallel cultures at the time of biomarker measurements, indicated as SRB endpoints. For proliferation assays for adherent cell types, individual cell types are cultured at sub-confluence and relative cell numbers quantified by SRB staining at time points optimized for each system (48 h: 3C and CASM3C systems; 72 h: BT and HDF3CGF systems; 96 h: SAg system). SRB was performed by staining cells with 0.1% SRB after fixation with 10% TCA and reading wells at 560 nm.Viability and proliferation of PBMC (T cells) was quantified by Alamar Blue reduction for the SAg and BT systems. For PBMC viability (referred to as PBMC Cytotoxicity within the assay endpoint names), cells were plated (75,000/well in a 96-well plate) and then chemical samples added for 1 h before addition of activators, SEB and TSST-1 (20 ng/mL final concentration each). Cells were incubated for 90 h. Then, Alamar Blue (20 uL/well) (Invitrogen, Cat DAL1100) was added for 6 h, and the plates were read with a fluorescence microplate reader at 546/580 nm (excitation/emission). For PBMC proliferation, cells were plated and activated as above but incubated for only 16 h prior to addition of Alamar Blue. Plates were read after 6 h.

Read-out in experiment [10]: CD69, CD69 (gene 969)
Description: BSK_SAg_CD69: BioMAP Diversity Plus: SAg Assay for CD69 Biomarker Activity (AID 2283089).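 For AC50: cell surface CD69 protein quantified by ELISA with fluorescence detection.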 The procedure, abridged: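 Values derive from bidirectional fitting relative to DMSO vehicle. Cells: umbilical vein endothelium plus peripheral blood mononuclear cells, treated 24 h before fluorescent ELISA for CD69.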

In the case of `O=[N+]([O-])c1ccc([N+](=O)[O-])cc1`, the AC50 (as a rule, the concentration at which the activity in the assay is half-maximal) in [1] is active: 2.9 µM; in experiment [6] it was active: 6.61 µM; in experiment [7], active: 7.8 µM; in experiment [8] it was active: 10.5 µM; in experiment [10], active: 6.32 µM. The outcome in [2], in experiment [3], in experiment [4], in [5] and in experiment [9] was inactive.
In the case of `Cc1cc([N+](=O)[O-])cc([N+](=O)[O-])c1O`, the outcome in experiment [1], in experiment [3], in experiment [4], in [5], in experiment [6] and in experiment [7] was inactive. For the same compound, the values for the AC50 in [2], in experiment [9] and in experiment [10] were active: 20 µM, active: 20 µM and active: 13.7 µM, respectively.
`CC(C)OP(=S)(OC(C)C)SCCNS(=O)(=O)c1ccccc1`: the AC50 in experiment [1] is active: 32.3 µM and active: 32 µM and active: 32.8 µM; in experiment [2] it was active: 36.1 µM and active: 36 µM and active: 36.4 µM; in experiment [3], active: 33.3 µM; in experiment [6], active: 36.5 µM and active: 32.8 µM; in [7], active: 31.6 µM and active: 29.3 µM and active: 34.2 µM; in experiment [8], active: 34.3 µM and active: 32.6 µM and active: 37.7 µM. Besides, the AC50 in experiment [9] is active: 30.3 µM and active: 30.1 µM and active: 33.1 µM; in [10], active: 32.8 µM and active: 20 µM. The result in [3] and in experiment [6] was inactive.
As for `O=C(Cl)Oc1ccccc1`, the outcome in experiment [1], in [2], in experiment [3], in experiment [4], in experiment [5] and in experiment [6] was inactive. In addition, the outcome in experiment [7], in experiment [8], in [9] and in experiment [10] was inactive.
On to `CN(C(=O)Cc1cccc2occc12)[C@H]1CC[C@@]2(CCCO2)C[C@@H]1N1CCCC1`, for which the result in experiment [1], in experiment [2], in [3], in experiment [4], in experiment [5] and in [6] was inactive. Besides, the outcome in experiment [7], in experiment [8], in experiment [9] and in experiment [10] was inactive.
With `O=C1C2CC=CCC2C(=O)N1SC(Cl)(Cl)C(Cl)Cl` (stereo not drawn), the AC50 was active: 14 µM in experiment [2], active: 6.06 µM in experiment [6], active: 8.23 µM in [8] and active: 12.6 µM in [9].
